Common to all, as to format: cell-based
Assay [1] has as its system SK-BR-3 cells. Briefly: Scratch assay, lateral migration of SK-BR-3 cells induced by CXCL12. The conditions noted are these: 1000 nM of HSA, pre-experiment. As for the experimental part: In a Corning 6-well plate, 40×10^4 SK-BR-3 cells were incubated with 2 mL of RPMI-1640 medium (containing 10% fetal bovine serum (FBS) and 1% penicillin-streptomycin) per well. The 6-well plate was pre-incubated for 24 h in a 37° C., 5% CO2 incubator. When SK-BR-3 cells were grown to near 90% confluency, 10 μL sterile pipette tips were used to scratch along a straight line in the wells of the plate. Then the cells were gently washed three times with PBS solution. Afterwards, RPMI-1640 medium containing 5% FBS was added to each well and meanwhile the CXCL12 aqueous solution was added to induce the cells, so that the molecule concentration of CXCL12 in each well was 100 ng/mL. […] The migration of the cells and the change of the scratch width L at 0 h and 24 h after scratching were observed by a microscope with 10×lens (IX71, OLYMPUS, Japan) and the cell migration rate (cell migration rate=polypeptide-HSA complex cell migration rate (L0 h−L24 h/L0 h)/blank control cell migration rate (L0 h−L24 h/L0 h)×100%) was calculated.

In assay [2] the test system is SK-BR-3 cells. Description: Transwell assay, longitudinal migration of SK-BR-3 cells induced by CXCL12. To be noted: 1000 nM of HSA, pre-experiment. As for the experimental part:
800 μL of RPMI-1640 medium containing 5% FBS was added to the lower chamber (Corning 24-well plate), along with adding the aqueous solution of CXCL12 (100 ng/mL) to induce the cells. The culture plate was incubated in a 37° C., 5% CO2 incubator for 24 h. The trans well chamber was removed and the non-migratory cells on the surface of the upper chamber of the filter membrane were carefully wiped with cotton swabs. […] Five fields in view were taken from each chamber membrane according to the orientation in the upper, lower, left, right and middle directions. The number N of migrated cells in each field of view was counted and the cell migration rate (migration rate=Npolypeptide-HSA complex/Nblank control×100%) was calculated based on the averaged values. Indirectly, the crystal violet was eluted from the stained chamber membrane with 800 μL of 33% acetic acid solution, and 100 μL of the eluate was assayed for OD value at 570 nm using a microplate reader.

The subject of assay [3] is SK-BR-3 cells. Briefly: CCK cell viability (proliferation-toxicity) of SK-BR-3 cells. The conditions noted are these: 4 μM HSA, pre-experiment. As for the experimental part:
SK-BR-3 was used as a model system for studying breast cancer cell lines. In a Corning 96-well plate, 1×10^4 cells were incubated with 100 μL of RPMI-1640 medium (containing 10% fetal bovine serum (FBS) and 1% penicillin-streptomycin) per well and the 96-well plate was pre-incubated under 37° C. and 5% CO2 for 24 hours. 10 μL solutions of poly peptide-HSA complex in PBS at various concentrations were added to the plate so that the final concentrations of the polypeptides were 10 nM, 100 nM, 200 nM, 400 nM, 1 μM, 2 μM, and 4 μM respectively. A blank control was obtained by adding only 10 μL of PBS solution. The culture plate was incubated in an incubator for 48 h, and 10 μL of CCK solution (Beijing FanboBiochemicals Co., Ltd.) was added to each well. The culture plate was incubated for 2 h in the incubator and the absorbance values (OD values) at 450 nm wavelength were measured by a continuous-spectrum multifunctional microplate reader (Tecan infinite M200, TECAN, Switzerland) to calculate cell viability (cell viability=OD450 nm (polypeptide-HSA complex)/(OD450 nm (blank control)×100%).

Assay [4] concerns MDA-MB-231 cells. Description: Transwell assay, longitudinal migration of MDA-MB-231 cells induced by CXCL12. To be noted: 1000 nM of HSA, pre-experiment. As for the experimental part: 800 μL of the serum-free DMEM medium was added to the lower chamber, along with adding an aqueous solution of CXCL12 (100 ng/mL) to induce the cells. […] The trans well chamber was removed and the non-migratory cells on the surface of the upper chamber of the filter membrane were carefully wiped with cotton swabs. […] Five fields in view were taken for each chamber membrane according to the orientation in the upper, lower, left, right and middle directions. The number of migrated cells in each field of view was counted and the cell migration rate was calculated based on the averaged values. Indirectly, the crystal violet was eluted from the stained chamber membrane with 800 μL of 33% acetic acid solution, and 100 μL of the eluate was assayed for OD value at 570 nm using a microplate reader.

Assay [5] has as its system HL-60 cells. Briefly: Transwell assay, longitudinal migration of HL-60 cells induced by CXCL12 (polypeptide-HSA complexes). The conditions noted are these: 1000 nM of HSA, pre-experiment. As for the experimental part: The culture plates were incubated in a 37° C., 5% CO2 incubator for 24 h.
Assay [6] relates to MDA-MB-231 cells. Briefly: Scratch assay, lateral migration of MDA-MB-231 cells induced by CXCL12. The conditions noted are these: 1000 nM of HSA, pre-experiment. As for the experimental part:
In a Corning 6-well plate, 20×10^4 cells were incubated with 2 mL of DMEM medium (containing 10% fetal bovine serum (FBS) and 1% penicillin-streptomycin) per well. The 6-well plate was pre-incubated for 24 h in a 37° C., 5% CO2 incubator. When MDA-MB-231 cells were grown to near 80% confluency, 10 μL sterile pipette tips were used to scratch along a straight line in the wells of the plate. Then the cells were gently washed three times with PBS solution. Afterwards, the serum-free DMEM medium was added to each well and meanwhile the CXCL12 aqueous solution was added to induce the cells, so that the concentration of CXCL12 in each well was 100 ng/mL. Then, the solution of polypeptide-HSA complex in PBS was added so that the final concentration of the polypeptide was 10 nM, 100 nM, and 1000 nM respectively, and PBS solution was added for use as a blank control.

Assay [7] deals with MDA-MB-231 cells. Briefly: CCK cell viability (proliferation-toxicity) of MDA-MB-231 cells. To be noted: 4 μM HSA, pre-experiment. As for the experimental part: MDA-MB-231 was used as a model system for studying breast cancer cell lines. In a Corning 96-well plate, 1×10^4 cells were incubated with 100 μL of DMEM medium (containing 10% fetal bovine serum (FBS) and 1% penicillin-streptomycin) per well and the 96-well plate was pre-incubated under 37° C. and 5% CO2 for 24 hours. 10 μL of polypeptide-HSA complex in PBS at various concentrations were added to the plate so that the final concentrations of the polypeptides were 10 nM, 100 nM, 400 nM, 1 μM, and 4 μM respectively. A blank control was obtained by adding only 10 μL of PBS solution. The culture plates were incubated in an incubator for 48 h, and 10 μL of CCK solution was added to each well. The culture plates were incubated for 2 h in the incubator and the absorbance values (OD values) at 450 nm wavelength were measured by a continuous-spectrum multifunctional microplate reader to calculate cell viability.

In the case of human serum albumin [HSA], in assay [1], the “migration rate of SK-BR-3 cells versus blank control (lateral)” value is on record as “not significantly different”. Besides, the “migration ability of SK-BR-3 cells versus blank control (longitudinal)” value in assay [2] is recorded as “no significant difference”. Besides, the “cell viability of SK-BR-3 cells versus cells alone” value in assay [3] is “not significantly different”. Further, in assay [4], the “migration rate of MDA-MB-231 cells versus blank control (longitudinal)” value was “not significantly different”. The “migration rate of HL-60 cells versus blank control (longitudinal)” value in assay [5] is listed as “not significantly different”. For the same substance, the “migration rate of MDA-MB-231 cells versus blank control (lateral)” value in assay [6] was “not significantly different”. Also, the “cell viability of MDA-MB-231 cells versus cells alone” value in assay [7] is given as “not significantly different”.

For the origin of these results see patent US20170360897A1, “POLYPEPTIDE AND POLYPEPTIDE COMPLEX FOR SUPPRESSING TUMOR METASTASIS AND TREATING LEUKEMIA AS WELL AS PREPARATION METHOD THEREFOR AND APPLICATION THEREOF” (National Center for Nanoscience and Technology, China, priority 2014, published 2017).
